1 molecule from patent US20250304567A1, “PYRROLIDIONE DERIVATIVES AS INHIBITORS OF NF KAPPA B INDUCING KINASE” (priority 2022, published 2025) can be followed below.

Protein sequences, listed by entry. Tags and fused reporters are not part of them.
UniProt Q99558, whole entry: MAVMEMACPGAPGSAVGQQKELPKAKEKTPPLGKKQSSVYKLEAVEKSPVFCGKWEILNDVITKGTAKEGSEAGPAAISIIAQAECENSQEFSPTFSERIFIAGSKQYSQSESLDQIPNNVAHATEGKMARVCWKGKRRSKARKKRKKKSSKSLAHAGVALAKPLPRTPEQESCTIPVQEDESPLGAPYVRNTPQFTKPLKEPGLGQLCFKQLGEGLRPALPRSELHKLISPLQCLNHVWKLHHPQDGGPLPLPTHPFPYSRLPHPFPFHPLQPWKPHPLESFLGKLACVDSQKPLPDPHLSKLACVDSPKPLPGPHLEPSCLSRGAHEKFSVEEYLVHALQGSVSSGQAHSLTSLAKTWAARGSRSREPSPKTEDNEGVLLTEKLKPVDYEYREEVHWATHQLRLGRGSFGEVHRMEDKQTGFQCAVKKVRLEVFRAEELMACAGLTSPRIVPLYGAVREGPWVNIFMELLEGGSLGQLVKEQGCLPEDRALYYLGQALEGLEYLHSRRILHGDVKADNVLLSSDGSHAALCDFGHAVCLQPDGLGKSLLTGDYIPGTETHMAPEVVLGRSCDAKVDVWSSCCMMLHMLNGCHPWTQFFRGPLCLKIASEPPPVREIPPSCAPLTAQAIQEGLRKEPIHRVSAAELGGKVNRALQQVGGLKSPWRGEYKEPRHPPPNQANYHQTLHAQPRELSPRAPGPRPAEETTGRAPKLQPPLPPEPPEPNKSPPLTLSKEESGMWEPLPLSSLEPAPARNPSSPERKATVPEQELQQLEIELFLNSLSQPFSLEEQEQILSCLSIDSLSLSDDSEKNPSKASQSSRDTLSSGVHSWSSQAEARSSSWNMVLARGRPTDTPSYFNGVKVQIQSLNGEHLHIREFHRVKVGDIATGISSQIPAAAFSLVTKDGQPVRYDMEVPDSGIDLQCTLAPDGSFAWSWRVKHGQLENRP

Some results are limits rather than exact numbers.

The target in test [1] is Recombinant Human NF-kappaB-Inducing Kinase (NIK/MAP3K14) (Homo sapiens, UniProt Q99558). Briefly: Inhibition of auto-phosphorylation of recombinant human NIK/MAP3K14 activity (AlphaScreen). The note with it: read-out: Assay 1 IC50, 5 μM ATP, 1 nM NIK, average if tested more than once. Here is the method: Assay 1: Inhibition of Auto-Phosphorylation of Recombinant Human NF-kappaB-Inducing Kinase (NIK/MAP3K14) Activity (AlphaScreen™)
NIK/MAP3K14 auto-phosphorylation activity was measured using the AlphaScreen™ (αscreen) format (Perkin Elmer). All compounds tested were dissolved in dimethyl sulfoxide (DMSO) and further dilutions were made in assay buffer. The final DMSO concentration was 0.7% (v/v) in assays. The assay buffer was 50 mM Tris pH 7.5 containing 1 mM EGTA (ethylene glycol tetraacetic acid), 1 mM DTT (dithiothreitol), 0.1 mM Na3VO4, 5 mM MgCl2, and 0.01% Tween®20. The assays were carried out in 384 well Proxiplates (Perkin Elmer). The incubations consisted of the compound, 5 μM Adenosine-5′-triphosphate (ATP), and 1 nM NIK/MAP3K14. Incubations were initiated by the addition of GST-tagged NIK/MAP3K14 enzyme, carried out for 2 h at 25° C. and terminated by addition of stop buffer containing anti-phospho-IKK Ser176/180 antibody. Protein A Acceptor and Glutathione-Donor beads were added before reading using an EnVision Multilabel Plate Reader (Perkin Elmer). The signal obtained in the wells was normalized using high (full enzyme activity, 0.7% DMSO) and low controls (no enzyme activity, 0.7% DMSO, no ATP). IC50's were determined by fitting a sigmoidal curve to % inhibition of control versus Log10 compound concentration.
On the technique in general: Alpha assays give light when donor and acceptor beads are brought close together.

Test [2] has as its system p-IKKa levels in L363 (NIK translocated multiple myeloma) cells. Briefly: Effect of compounds on p-IKKa levels in L363 (NIK translocated multiple myeloma) cells (AlphaLISA SureFire Ultra p-IKKa Ser176/180). The test is classed as cell-based, human. The note with it: read-out: Assay 2 IC50, average if tested more than once. Here is the method:
Assay 2: Effect of Compounds on p-IKKa Levels in L363 (NIK Translocated Multiple Myeloma) Cells
All compounds tested were dissolved and serially diluted in DMSO, 1:3 dilution for 11 points in an Echo compatible plate. 100% DMSO was added to columns 12 and 24 of the plate to serve as high and low signal controls. This compound plate was used to spot 20 nL of compound or DMSO into a Greiner 384 well TC plate (781080). The final DMSO concentration was 0.3% (v/v) in cell assays. Human L363 cells (ATCC) were cultured in RPM11640 medium supplemented with GlutaMax, non-essential amino acids, sodium pyruvate and 10% fetal bovine serum. Cells were routinely maintained at densities of 0.2×10^6 cells per ml-2×10^6 cells per mL at 37° C. in a humidified 5% CO2 atmosphere incubator. […] At the end of this incubation, lysed cells were sequentially treated and incubated with acceptor and donor bead mixes according to the manufacturer's protocol for a 1 plate/2-incubation suspension cell assay (AlphaLISA SureFire Ultra p-IKKa (Ser 176/180) Assay Kit (Perkin Elmer). Plates were read using an EnVision Multilabel Plate Reader (Perkin Elmer). Within an experiment, a concentration response curve for each compound was run in duplicate. The signal obtained in the test wells was normalized using high signal (BAFF stimulated cells, DMSO, MG132) and low signal (unstimulated cells, DMSO) controls. […]

Usually IC50 stands for the concentration that inhibits the measured activity by half. As to `CN1CC[C@@](O)(c2cccc(-c3nc(-c4ccnc(N[C@@H]5CCC[C@@H]5O)n4)cs3)c2)C1=O`, the 50% inhibitory concentration (IC50) in test [1] is 100 to 500 nM; in test [2] it was over 501 nM.
